Results published in patent US7786145B2, “Cyanoguanidine-based azole compounds useful as malonyl-CoA decarboxylase inhibitors” (Chugai Seiyaku Kabushiki Kaisha, priority 2003, dated 2010).

Amino acid sequences for entries named in this document (tags omitted). Residues count along the entry.
UniProt O95822, 40-493 limits assumed: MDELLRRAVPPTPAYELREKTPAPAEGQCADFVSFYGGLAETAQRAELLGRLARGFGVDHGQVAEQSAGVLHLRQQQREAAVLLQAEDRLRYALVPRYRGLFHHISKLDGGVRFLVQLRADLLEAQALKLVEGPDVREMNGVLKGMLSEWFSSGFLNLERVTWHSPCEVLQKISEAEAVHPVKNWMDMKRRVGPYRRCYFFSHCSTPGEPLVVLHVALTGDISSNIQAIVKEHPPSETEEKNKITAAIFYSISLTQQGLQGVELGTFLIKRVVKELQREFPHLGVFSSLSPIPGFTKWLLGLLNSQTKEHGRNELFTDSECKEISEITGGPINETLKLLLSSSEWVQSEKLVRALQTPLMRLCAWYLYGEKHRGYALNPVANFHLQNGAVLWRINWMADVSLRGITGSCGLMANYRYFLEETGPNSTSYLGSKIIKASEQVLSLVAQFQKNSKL

Experiments:
[1] = target: hMCD (malonyl-CoA decarboxylase) (Homo sapiens, UniProt O95822); test: In Vitro MCD Inhibitory Assay
Experimental: In Vitro MCD Inhibitory Assay:
The conversion of […] was assayed using a modified protocol as previously described by Kim, Y. S. and Kolattukudy, P. E. in 1978 (Arch. Biochem. Biophys 190:585 (1978)). As shown in eq. 1-3, the establishment of the kinetic equilibrium between malate/NAD and oxaloacetate/NADH was catalyzed by malic dehydrogenase (eq. 2). […] The accumulation of NADH can be continuously followed by monitoring the increase of fluorescence emission at 460 nm on a fluorescence plate reader. The fluorescence plate reader was calibrated using the authentic acetyl-CoA from Sigma. For a typical 96-well plate assay, the increase in the fluorescence emission (λex=360 nm, λem=460 nm, for NADH) in each well was used to calculate the initial velocity of hMCD. Each 50 μL assay contained 10 mM phosphate buffered saline (Sigma), pH 7.4, 0.05% Tween-20, 25 mM K2HPO4—KH2PO4 (Sigma), 2 mM Malate (Sigma), 2 mM NAD (Boehringer Mannheim), 0.786 units of MD (Roche Chemicals), 0.028 unit of CS (Roche Chemicals), 5-10 nM hMCD, and varying amounts of MCA substrate. Assays were initiated by the addition of MCA, and the rates were corrected for the background rate determined in the absence of hMCD.

[2] = system: Isolated Working Rat Hearts; test: Glucose oxidation in isolated working rat hearts; set-up: unit not given here; settings: DMSO control
Experimental: Isolated Working Rat Heart Assay Protocol
Isolated working hearts from male Sprague-Dawley rats (300-350 g) are subjected to a 60-minute aerobic perfusion period. The working hearts are perfused with 95% O2, 5% CO2 with a modified Krebs-Henseleit solution containing 5 mM glucose; 100 μU/mL insulin; 3% fatty acid-free BSA; 2.5 mM free Ca^2+, and 0.4 to 1.2 mmol/L palmitate (Kantor et al., Circulation Research 86:580-588(2000)). The test compound is added 5 minutes before the perfusion period. DMSO (0.05%) is used as control.
Measurement of Glucose Oxidation Rates
Samples were taken at 10-minute intervals for measurements of experimental parameters. Glucose oxidation rates are determined by the quantitative collection of ^14CO2 produced by hearts perfused with buffer containing [U14]-Glucose (R. Barr and G. Lopaschuk, in “Measurement of cardiovascular function”, McNeill, J. H. ed., Chapter 2, CRC press, New York (1997)). After the perfusion, the ^14CO2 from the perfusae is subsequently released by injecting 1 mL of perfusate into sealed test tube containing 1 mL of 9N H2SO4. […] Samples were counted by standard procedures as described above. Average rates of glucose oxidation for each phase of perfusion are expressed as μmol/min/g dry wt as described above. […]

Structure (SMILES) | Ki ([1]; Table 1, MCD inhibition) | Ki ([1]; Table 2, MCD inhibition) | GOX [2]
CCCN(C(=NC#N)Nc1ccc(C(=O)OC)cc1)c1ccc2nc(S)sc2c1 | 2.2 nM |  | 
CC(=O)Nc1ccc(NC(=NC#N)N(C)c2ccc3nc(S)sc3c2)cc1 | 73.3 nM |  | 
CCN(C(=NC#N)Nc1ccc(NC(C)=O)cc1)c1ccc2nc(S)sc2c1 | 59.9 nM |  | 
CN(C(=NC#N)Nc1ccc(C(N)=O)cc1)c1ccc2nc(S)sc2c1 | 13.3 nM |  | 

Further lines, with some results ahead:

Ki ([1]; Table 1, MCD inhibition) | Ki ([1]; Table 2, MCD inhibition) | Structure (SMILES) | GOX [2]
5.1 nM | 5.1 nM | CCN(C(=NC#N)Nc1ccc(OCCCC(F)(F)F)cc1)c1ccc2nc(S)sc2c1 | 353
14.9 nM |  | CC(C)CN(C(=NC#N)Nc1ccc(OCCCC(F)(F)F)cc1)c1ccc2nc(S)sc2c1 | 
3.3 nM |  | CCCN(C(=NC#N)Nc1ccc(OCCCC(F)(F)F)cc1)c1ccc2nc(S)sc2c1 | 
2.8 nM |  | CN(C(=NC#N)Nc1ccc(OCCCC(F)(F)F)cc1)c1ccc2nc(S)sc2c1 | 
